According to patent publication US20070213324A1 (priority 2006, published 2007):

Assay: Phase I bioavailability study, single dose and steady state
Settings: meloxicam, acute administration

## Cc1cnc(NC(=O)C2=C(O)c3ccccc3S(=O)(=O)N2C)s1 [Meloxicam, 4-hydroxy-2-methyl-N-(5-methyl-2-thiazolyl)-2H-1,2-benzothiazine-3-carboxamide-1,1-dioxide]
  bioequivalence, combined versus on its own: bioequivalent
